Experimental data published in US8653041B2, “Antibacterial aminoglycoside analogs” (Achaogen, Inc., priority 2010, dated 2014).

Assay: 14-day rat toxicology (nephrotoxicity), once-daily subcutaneous injection
Conditions: 14 days, Sprague-Dawley rat
Method: The study design utilized once-daily subcutaneous injection administration to the rat for 14 days and assessment of reversibility of any changes following a 28-day recovery period.
The dose volume administered to each animal was 1 mL/kg.

Substance: gentamicin
- change in kidney function readouts serum creatinine and blood urea nitrogen (BUN) (10 mg/kg/day (low dose) subcutaneous): No statistically significant change
- change in kidney function readouts serum creatinine and blood urea nitrogen (BUN) (mid and high dose levels (30 mg/kg/day and 100 mg/kg/day) subcutaneous): statistically significant increase
